In patent US7998937B2, “Flavonoid compound having an antiviral activity” (Korea Research Institute of Bioscience and Biotechnology, priority 2005, dated 2011):

Test system: Vero cells
Assay: Cytotoxicity (CC50) in Vero cells
Conditions: 0.1-100 μg/mL, 48 hours

For catechin, the “CC50 (concentration required for 50% cytotoxicity)” value was greater than 100 µg/mL.
